SMILES strings stand for the structures.

The target of experiment [1] is Acetyl-CoA carboxylase 1 (Rattus norvegicus, UniProt P11497). Briefly: Inhibition of rat ACC1 assessed as inorganic phosphate generation preincubated for 5 mins measured after 1.5 hrs using Malachite green reagent method.
For experiment [2], the target named is Acetyl-Coenzyme A carboxylase 2 (Rattus norvegicus, UniProt Q1HEC0). Briefly: Inhibition of ACC2 […] preincubated for 15 mins measured after 1.5 hrs using Malachite green reagent method.

Turning to `O=C(c1c2ccccc2cc2ccccc12)N1CCC(N2CCC[C@@H](C(=O)N3CCOCC3)C2)CC1`, the IC50 in experiment [1] came to 0.23 µM; in experiment [2], 0.17 µM.

These data come from ChEMBL document CHEMBL1817551, “Design of small molecule inhibitors of acetyl-CoA carboxylase 1 and 2 showing reduction of hepatic malonyl-CoA levels in vivo in obese Zucker rats” (Bioorg Med Chem, 2011).
